{
  "source": "PubChem BioAssay AID1775",
  "about": "(NMMLSC, 2009)",
  "note": "This is a selection; strong and weak results do not stand in their true shares. Some results for these compounds are left out of this collection, so the calls shown say nothing about other tests. Active and inactive are the calls of the source. No stated cut-off is given here; in the data, active means fluorescence above about 47; inactive means the rest.",
  "data": [
    {"assay": "green autofluorescence of compounds with avidin beads – biophysical, 488/530 nm, flow cytometry, artefact control, profiling panel (AID 1775)", "conditions": "compound fluorescence 488/530 nm, at 10 µM, stronger effect = higher value", "values": [
      {"smiles": "O=C(OC1CN2CCC1CC2)C(CO)(c1ccccc1)c1ccccc1", "note": "(stereo unspecified)", "fluorescence (KMESF)": "inactive: 12"},
      {"smiles": "COc1ccc(Br)c(C(=O)NCC2(N3CCCCC3)CCCCC2)c1", "fluorescence (KMESF)": "inactive: 7"},
      {"smiles": "CN(C)c1cccc(C(=O)NCC2(N(C)C)CCCCC2)c1", "fluorescence (KMESF)": "inactive: 39"},
      {"smiles": "COc1cccc(C(=O)NCC2(N3CCCCC3)CCCCC2)c1", "fluorescence (KMESF)": "inactive: 9"},
      {"smiles": "Cc1ccccc1C(=O)NCC1(N2CCCCC2)CCCCC1", "fluorescence (KMESF)": "inactive: 12"},
      {"smiles": "CN(C)C1CCCC1OC(=O)C(O)(c1ccccc1)c1ccccc1", "note": "(stereo unspecified)", "fluorescence (KMESF)": "inactive: 7"},
      {"smiles": "C=CCN1CCN(CCOC(=O)C(O)(c2ccccc2)c2ccccc2)CC1", "fluorescence (KMESF)": "inactive: 14"},
      {"smiles": "CCN1CCCC(OC(=O)C2(O)c3ccccc3C=Cc3ccccc32)C1", "note": "(stereo unspecified)", "fluorescence (KMESF)": "inactive: 3"},
      {"smiles": "O=C(NCC1(N2CCCCC2)CCCCC1)c1cc([N+](=O)[O-])ccc1Cl", "fluorescence (KMESF)": "inactive: 6"},
      {"smiles": "CC(C)N1C(=O)CC2(CCN(CCOC(=O)C(O)(c3ccccc3)c3ccccc3)CC2)C1=O", "fluorescence (KMESF)": "inactive: 30"},
      {"smiles": "CCN(CC)CC(C)C(C)OC(=O)C(O)(c1ccccc1)c1ccccc1", "note": "(stereo unspecified)", "fluorescence (KMESF)": "inactive: 8"}
    ]}
  ]
}
